Measurements from patent publication US12161698B2, “Synthetic platelets” (CASE WESTERN RESERVE UNIVERSITY, priority 2011, dated 2024).

Tested on: platelets
Experiment: Aggregometry of VBP and CBP peptides (platelet activation)

SMILES: NCC(=O)N1CCC[C@H]1C(=O)N1C[C@H](O)C[C@H]1C(=O)NCC(=O)N1CCC[C@H]1C(=O)N1C[C@H](O)C[C@H]1C(=O)NCC(=O)N1CCC[C@H]1C(=O)N1C[C@H](O)C[C@H]1C(=O)NCC(=O)N1CCC[C@H]1C(=O)N1C[C@H](O)C[C@H]1C(=O)NCC(=O)N1CCC[C@H]1C(=O)N1C[C@H](O)C[C@H]1C(=O)NCC(=O)N1CCC[C@H]1C(=O)N1C[C@H](O)C[C@H]1C(=O)NCC(=O)N1CCC[C@H]1C(=O)N1C[C@H](O)C[C@H]1C(N)=O
- activation of platelets by aggregometry: inability of both VBP and CBP to activate platelets
